Earlier results as cited in patent US8962808B2, “EGFR-related polypeptides and methods of use” (The Research Foundation for the State University of New York, priority 2010, dated 2015).

Columns and labels:
advanced stage HNSCC = conditions: phase III; cited from earlier work
[1] = system: cancer cells with EGFRvIII expression; conditions: literature reports; cited from earlier work

## cetuximab
Advanced stage HNSCC
  improvement of overall survival at 3 years: 10%
  local regional control: improved
  progression-free survival: significantly prolonged
[1]
  sensitivity of cancer cells with EGFRvIII expression: not as sensitive
